Laboratory results as given in ChEMBL document CHEMBL1137169, “P4 cap modified tetrapeptidyl alpha-ketoamides as potent HCV NS3 protease inhibitors” (Bioorg Med Chem Lett, 2004).

Biological target: T1, Neutrophil elastase (Homo sapiens) (UniProt P08246)
T1 sequence (whole entry): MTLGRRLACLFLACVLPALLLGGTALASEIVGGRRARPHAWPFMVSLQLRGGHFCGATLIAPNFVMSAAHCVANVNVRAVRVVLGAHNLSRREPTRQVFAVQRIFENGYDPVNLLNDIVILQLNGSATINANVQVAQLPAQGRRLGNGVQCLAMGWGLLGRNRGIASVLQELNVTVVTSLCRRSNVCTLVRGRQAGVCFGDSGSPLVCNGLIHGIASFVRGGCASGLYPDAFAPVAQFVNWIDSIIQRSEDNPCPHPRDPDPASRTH
Test: Selectivity for human neutrophil elastase

CCC[C@H](NC(=O)[C@@H]1C2CCCC2CN1C(=O)[C@@H](NC(=O)[C@@H](NC(=O)c1cnccn1)C(C)C)C(C)C)C(=O)C(=O)NC1CC1 (stereo partly specified)
Selectivity: 33
